Measured values as given in the Kinase Knowledgebase extract (Sharma et al. 2016).

Sequences of proteins named here, by UniProt entry; tags and fusion partners are left off.
UniProt Q16539, whole entry, looked up: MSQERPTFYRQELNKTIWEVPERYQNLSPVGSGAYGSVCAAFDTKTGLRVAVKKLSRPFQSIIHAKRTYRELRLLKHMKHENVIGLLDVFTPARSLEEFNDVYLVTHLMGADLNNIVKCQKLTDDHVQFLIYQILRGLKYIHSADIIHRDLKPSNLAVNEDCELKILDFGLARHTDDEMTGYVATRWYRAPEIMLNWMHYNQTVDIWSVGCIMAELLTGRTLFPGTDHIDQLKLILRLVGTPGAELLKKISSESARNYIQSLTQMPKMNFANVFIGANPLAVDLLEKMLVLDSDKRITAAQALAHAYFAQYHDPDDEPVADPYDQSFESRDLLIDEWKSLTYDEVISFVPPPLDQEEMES

Each molecule was assayed against MAPK14 (human) (UniProt Q16539) (assay: Inhibition of LPS Stimulated TNF Production by U937 Cells). Details: concentration not given here.

Point of comparison: `C[C@H](NS(=O)(=O)N(C)C)c1[nH]nc(-c2ccc(F)cc2)c1-c1ccncc1`, inhibition 80%. Against it:
- C[C@H](NC(=O)c1cccc2ccccc12)c1[nH]nc(-c2ccc(F)cc2)c1-c1ccncc1 — lower, 25%
- C[C@H](NC(=O)Nc1ccccc1)c1[nH]nc(-c2ccc(F)cc2)c1-c1ccncc1 — lower, 45%
